Experimental melting point values from OPERA 2.9

Source: data files of OPERA 2.9 (Mansouri et al.), github.com/kmansouri/OPERA.

Melting points are in °C. The databases behind each value are named after "via".

Listed for NC(=O)CNc1ccccc1 [N~2~-Phenylglycinamide]: melting point 140 °C (via OCHEM).
Listed for COC(=O)Nc1ccc(Cl)c(Cl)c1 [Swep]: melting point 113 °C (via PubChem).
Listed for CC(=O)c1ccc(-c2ccccc2)s1 [1-(5-phenylthiophen-2-yl)ethanone]: melting point 116 °C (via OCHEM).
Listed for O=C(O)Cn1cc([N+](=O)[O-])cn1 [(4-nitro-1H-pyrazol-1-yl)acetic acid]: melting point 154 °C (via OCHEM).
Listed for CC1=NC(=C2C=CC(=O)C=C2)NO1 [4-(5-methyl-1,2,4-oxadiazol-3-yl)phenol]: melting point 187 °C (via OCHEM).
Listed for O=[N+]([O-])c1ccccc1S(=O)(=O)N1CCNCC1 [1-(2-Nitrobenzene-1-sulfonyl)piperazine]: melting point 148 °C (via OCHEM).
Listed for CCOC(=O)c1[nH]c(C)c(C(=O)O)c1C: melting point 104 °C (via OCHEM).
Listed for COC=C(C(=O)OC)c1ccccc1Oc1cc(Cl)ncn1: melting point 106.7 °C (via eChemPortal).
Listed for Nc1ccc(-c2nc3ccccc3o2)cc1 [Benzenamine, 4-(2-benzoxazolyl)-]: melting point 171 °C (via OCHEM).
Listed for Cc1nc(N)nc2c1CCCC2 [4-methyl-5,6,7,8-tetrahydroquinazolin-2-amine]: melting point 183 °C (via OCHEM).
Listed for Cc1nccn1-c1ccc(C(F)(F)F)cc1N [2-(2-methyl-1H-imidazol-1-yl)-5-(trifluoromethyl)aniline]: melting point 184 °C (via OCHEM).
Listed for O=C(O)c1cc(S(=O)(=O)Cl)c(Cl)cc1Cl [2,4-Dichloro-5-(chlorosulphonyl)benzoic acid]: melting point 160 °C (via OCHEM).
Listed for CSCc1ccc(C(=O)O)cc1 [4-[(Methylsulfanyl)methyl]benzoic acid]: melting point 146 °C (via OCHEM).
Listed for O=Cc1ccc(OCC(=O)c2ccccc2)cc1 [4-(2-oxo-2-phenylethoxy)benzaldehyde]: melting point 117 °C (via OCHEM).
Listed for Cn1c(=O)c2c(=O)cc(N)[nH]c2n(C)c1=O: melting point 317 °C (via OCHEM).
Listed for CCOc1ccc(C(=O)CCl)cc1 [2-chloro-1-(4-ethoxyphenyl)ethanone]: melting point 64 °C (via OCHEM).
Listed for N#Cc1ccc(CSc2ccccc2C(=O)O)cc1 [2-(4-Cyano-benzylsulfanyl)-benzoic acid]: melting point 209 °C (via OCHEM).
Listed for Nc1nc2ccccc2n1N [1H-benzimidazole-1,2-diamine]: melting point 260 °C (via OCHEM).
Listed for O=C(O)/C=C/c1cccc(F)c1 [(2E)-3-(3-Fluorophenyl)-2-propenoic acid]: melting point 166.5 °C (via OCHEM).
Listed for Cc1cccc(OCC(=O)NN)c1 [Acetic acid, (3-methylphenoxy)-, hydrazide]: melting point 110 °C (via OCHEM).
Listed for Clc1ccc(Cl)c(-c2ccc(Cl)c(Cl)c2Cl)c1 [2,2',3,4,5'-Pentachlorobiphenyl]: melting point 112 °C (via QSARDB).
Listed for CCCCn1c(N)cc(=O)n(C)c1=O [6-Amino-1-butyl-3-methylpyrimidine-2,4(1H,3H)-dione]: melting point 93 °C (via OCHEM).
Listed for Clc1cc(N2CCCCC2)ncn1 [4-chloro-6-piperidin-1-ylpyrimidine]: melting point 78.5 °C (via OCHEM).
Listed for NC(=O)c1cc(N)cc(C(N)=O)c1 [5-Amino-isophthalamide]: melting point 247 °C (via OCHEM).
Listed for CCCn1c(=O)[nH]c2ccccc21 [1-Propyl-1,3-dihydro-2H-benzimidazol-2-one]: melting point 98 °C (via OCHEM).
Listed for O=[N+]([O-])c1cc2c(cc1Br)OCCO2 [6-Bromo-7-nitro-2,3-dihydro-1,4-benzodioxine]: melting point 168 °C (via OCHEM).
Listed for Cc1cc(C=O)c(C)n1-c1ccc(Cl)cc1 [1-(4-Chlorophenyl)-2,5-dimethyl-1H-pyrrole-3-carbaldehyde]: melting point 124 °C (via OCHEM).
Listed for O=C(O)CN[C@@H]1CCS(=O)(=O)C1 [N-(1,1-Dioxo-1lambda~6~-thiolan-3-yl)glycine]: melting point 242 °C (via OCHEM).
Listed for COc1ccccc1Nc1n[nH]c(=S)s1 [5-(2-Methoxyanilino)-1,3,4-thiadiazole-2(3H)-thione]: melting point 183 °C (via OCHEM).
Listed for CC(C)(C)N(NC(=O)c1ccccc1)C(=O)c1c(Cl)cccc1Cl [N'-Benzoyl-N-tert-butyl-2,6-dichlorobenzohydrazide]: melting point 198 °C (via OCHEM).
Listed for CC(Oc1ccc(Cl)c(Cl)c1)C(=O)O (stereo not drawn) [2-(3,4-Dichlorophenoxy)propanoic acid]: melting point 126 °C (via OCHEM).
Listed for NC(=O)C(F)(F)c1ccccc1 [2,2-difluoro-2-phenylacetamide]: melting point 117 °C (via OCHEM).
Listed for COc1ccc(C=O)cc1OCC(C)C [4-methoxy-3-(2-methylpropoxy)benzaldehyde]: melting point 41 °C (via OCHEM).
Listed for CCN(CC)C(=O)c1cccc(N)c1 [3-amino-N,N-diethylbenzamide]: melting point 82 °C (via OCHEM).
Listed for CN(C)Cc1cccc(N)c1 [3-Amino-N,N-dimethylbenzylamine]: melting point 41 °C (via OCHEM).
Listed for NC(=O)CCC(=O)O [Succinamic acid]: melting point 154.5 °C (via OCHEM).

Excerpt, the opening 5 entries:

NC(=O)CNc1ccccc1 [N~2~-Phenylglycinamide] is reported with melting point 140 °C (via OCHEM).
COC(=O)Nc1ccc(Cl)c(Cl)c1 [Swep] is reported with melting point 113 °C (via PubChem).
CC(=O)c1ccc(-c2ccccc2)s1 [1-(5-phenylthiophen-2-yl)ethanone] is reported with melting point 116 °C (via OCHEM).
O=C(O)Cn1cc([N+](=O)[O-])cn1 [(4-nitro-1H-pyrazol-1-yl)acetic acid] is reported with melting point 154 °C (via OCHEM).
CC1=NC(=C2C=CC(=O)C=C2)NO1 [4-(5-methyl-1,2,4-oxadiazol-3-yl)phenol] is reported with melting point 187 °C (via OCHEM).

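The OPERA project collected these measurements from public sources as training and test data for property models. A listed value is a point estimate from one report or more. Method and conditions are not stated for these values. The measured form (salt, isomer or mixture) is not always the one drawn. Unmarked limits or estimates from the upstream databases cannot be ruled out.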